Experiments:
purified FR-α = target: T1, purified FR-α (Homo sapiens, UniProt P15328); experiment: Surface plasmon resonance binding of antibody to purified FR-α
T1 construct: The soluble, secreted form of the antigen will be purified from the serum-free culture supernatant of target cells; endogenous in cells
Description: Kinetic and steady-state binding constants between the antibody of the invention and purified FR-α were determined by surface plasmon resonance spectroscopy. On-rate (ka) was determined to be (2.25±0.02) M^−1s^−1, and off-rate (kd) was determined to be (5.02±0.08) s^−1.
Surface plasmon resonance spectroscopy relies on the short range (˜150 nm) interaction of the electrical field (evanescent wave) generated by photons under conditions of total internal reflection (TIR) with electrons (surface plasmons) in a conductive film at the boundary between two media of differing refractive indices, whereby one of the media is a thin gold layer (conductive film) coated with an alkane linker coupled to CM-dextran. The CM-dextran surface, which forms an extended hydrogel in solution, projecting roughly 100-150 nm into the flowcell, may be derivatized further with a ligand of choice by covalent immobilization to the carboxyl groups present on the CM-dextran layer. The angle necessary to allow the evanescent wave to interact with the gold layer will depend on the angle necessary to observe TIR, which in turn depends on the thickness or mass at the surface of the chip. The instrument thus allows for observation of the change in mass at the surface of the chip over time, as would be observed when an analyte which interacts with the immobilized ligand is injected into the flowcell. If injection of analyte is followed by injection of buffer, one can follow both the association (during injection of the analyte) and dissociation phases (during buffer injection) of the binding. Kinetic on-rates (ka) and off-rates (kd), as well as steady-state equilibrium constants (Ka and Kd) can thus be extrapolated.
The soluble, secreted form of the antigen will be purified from the serum-free culture supernatant of target cells by chromatography through Phenyl Sepharose (high sub), followed by ion exchange on S Sepharose Fast Flow. Briefly, culture supernatant containing secreted antigen will be loaded onto the Phenyl Sepharose (high sub) column in the absence of additional salts. […]

Amino acid sequences for entries named in this document (tags omitted). Residues count along the entry.
UniProt P15328, 25-234: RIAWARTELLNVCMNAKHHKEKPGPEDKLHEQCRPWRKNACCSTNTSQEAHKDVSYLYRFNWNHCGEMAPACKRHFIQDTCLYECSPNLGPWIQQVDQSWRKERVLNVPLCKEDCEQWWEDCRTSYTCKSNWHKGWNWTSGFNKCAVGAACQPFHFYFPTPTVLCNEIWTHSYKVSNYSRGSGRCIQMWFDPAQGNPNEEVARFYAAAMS

FR-α = FR-α (Homo sapiens, UniProt P15328); experiment: Western blot with anti-FR-α antibody on nonreducing gel; assay type: binding; set-up: lysates prepared from a cell line known to express FR-α; endogenous in cells; host or cells: unnamed FR-α-expressing cell line (lysate); KB cells (secreted soluble FR-α, also after PNGase F); 1205 Lu as negative line
[1] = surface plasmon resonance spectroscopy, purified FR-α

- antigen binding activity (dissociation constant) (purified FR-α; optimized, humanized anti-FR-α antibody, in words): low nanomolar
- On-rate (ka) (purified FR-α; [1]): 2.25 ± 0.02 M⁻¹ s⁻¹
- off-rate (kd) (purified FR-α; [1]): 5.02 ± 0.08 s⁻¹
B1: anti-FR-α antibody: humanized anti-FR-α antibody, heavy chain SEQ ID NO:5 and light chain SEQ ID NO:2, expressed in CHO-K1 cells (antibody)
heavy: EVQLVESGGGVVQPGRSLRLSCSASGFTFSGYGLSWVRQAPGKGLEWVAMISSGGSYTYYADSVKGRFAISRDNAKNTLFLQMDSLRPEDTGVYFCARHGDDPAWFAYWGQGTPVTVSSASTKGPSVFPLAPSSKSTSGGTAALGCLVKDYFPEPVTVSWNSGALTSGVHTFPAVLQSSGLYSLSSVVTVPSSSLGTQTYICNVNHKPSNTKVDKKV[human IgG1 Fc not written out]
light: DIQLTQSPSSLSASVGDRVTITCSVSSSISSNNLHWYQQKPGKAPKPWIYGTSNLASGVPSRFSGSGSGTDYTFTISSLQPEDIATYYCQQWSSYPYMYTFGQGTKVEIKRTVAAPSVFIFPPSDEQLKSGTASVVCLLNNFYPREAKVQWKVDNALQSGNSQESVTEQDSKDSTYSLSSTLTLSKADYEKHKVYACEVTHQGLSSPVTKSFNRGEC
- Western blot detection in lysates of a cell line known to express FR-α (FR-α): able to detect a single polypeptide of Mr˜35 kD
- Western blot detection in lysates of a cell line that does not express the antigen (1205 Lu) (FR-α): not in lysates of a cell line that does not express the antigen

Reference: US9650440B2, “Monoclonal antibodies that specifically block biological activity of a tumor antigen” (Morphotek, Inc., priority 2004, dated 2017)
